Experimental findings from ChEMBL document CHEMBL1121722, “Nonquaternary cholinesterase reactivators. Dialkylaminoalkyl thioesters of alpha-ketothiohydroximic acids as reactivators of diisopropyl phosphorofluoridate inhibited acetylcholinesterase” (1981) are described below.

Amino acid sequences for entries named in this document (tags omitted). A change or cut given only in a name is not applied to a line headed by its entry.
UniProt P22303: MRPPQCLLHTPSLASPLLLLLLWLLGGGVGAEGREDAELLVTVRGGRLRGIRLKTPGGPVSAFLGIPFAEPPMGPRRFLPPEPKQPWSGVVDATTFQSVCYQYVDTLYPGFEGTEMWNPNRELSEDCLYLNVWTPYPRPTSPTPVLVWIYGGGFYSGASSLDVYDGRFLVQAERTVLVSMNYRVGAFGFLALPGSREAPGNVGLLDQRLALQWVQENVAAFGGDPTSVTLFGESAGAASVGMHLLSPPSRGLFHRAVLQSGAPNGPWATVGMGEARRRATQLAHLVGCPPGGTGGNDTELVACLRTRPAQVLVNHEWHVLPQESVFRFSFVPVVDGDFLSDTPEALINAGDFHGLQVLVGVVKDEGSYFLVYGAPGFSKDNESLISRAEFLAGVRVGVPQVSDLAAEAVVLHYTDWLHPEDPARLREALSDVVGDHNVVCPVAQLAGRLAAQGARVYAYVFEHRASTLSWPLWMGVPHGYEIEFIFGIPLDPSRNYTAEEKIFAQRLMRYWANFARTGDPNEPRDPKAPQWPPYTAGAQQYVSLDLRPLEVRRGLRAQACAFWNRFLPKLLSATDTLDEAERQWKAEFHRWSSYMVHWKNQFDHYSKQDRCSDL

Assay [1] has as its target Acetylcholinesterase (Homo sapiens) (UniProt P22303). The assay is described as follows: Kinetic constant was determined for reactivation of acetylcholinesterase at concentration of 4M*10e4 [HOX] and 6.65Me-1*10e-3 [OX]e-1; (kobsd-ka)e-1, min.
For assay [2] the target is unchanged. As to the kind of experiment: Ratio of [EOP'']infinity to that of [EOH]infinity for reactivation of acetylcholinesterase at concentration of 12M*10e4 [HOX] and 2.20 Me-1*10e-3 [OX]e-1; Expressed as [EOP'']infinity/[EOH]infinity.
The target is the same in assay [3]. As to the kind of experiment: Kinetic constant was determined for reactivation of acetylcholinesterase at concentration of 10M*10e4 [HOX] and 2.66Me-1*10e-3 [OX]e-1; (kobsd-ka)e-1, min.
Assay [4] shares this target. The assay is described as follows: Maximum attainable percent reactivation obtained for a range of concentrations of 0.0800 M*10e4 HOX and 0.0232 M *10e4OX.
Assay [5] shares this target. The assay is described as follows: ka for reactivation of acetylcholinesterase at concentration of 2M*10e4 [HOX] and 10 Me-1*10e-3 [OX]e-1 was determined; Expressed as ka, 1/min 1*10e3.

Turning to `CCN(CC)CCS/C(=N\O)C(=O)c1ccc(OC)cc1`, the figures for the 1/kobsd-ka in assay [1] and in assay [3] were 353 min and 176 min, respectively. In addition, the [EOP']infinity/[EOH]infinity in assay [2] is 0.47.
For the compound `C[n+]1ccccc1C=NO`, the Reactivation in assay [4] is 4.2%. The compound further returned a ka in assay [5] of 6700 min⁻¹.
